These are literature values, as cited in paper PMC3989380.

Where two headings read alike, the source gives them in different places. A value given as a limit tells only on which side of the number the result lay.

Data set [1] deals with Connexin 44 (Cx44p132-153) (Ovis aries) (UniProt Q9TU17).
The target in data set [2] is Connexin 50 (Cx50p141-166) (Homo sapiens) (UniProt P48165).
Data set [3] deals with Connexin 32 (rCx32p216-230) (Rattus norvegicus) (UniProt P08033).
Data set [4] addresses Connexin 50 (Cx50p141-166) (Homo sapiens) (UniProt P48165). This is another data set of the same source.
Data set [5] deals with Connexin 44 (Cx44p132-153) (Ovis aries) (UniProt Q9TU17). This is another data set of the same source.
Data set [6] deals with Connexin 43 (Cx43p136-158) (Homo sapiens) (UniProt P17302). As to the kind of experiment: dansylated CaM fluorescence.

Regarding Calmodulin (from UniProt P0DP23), the Kd (usually the free concentration of one partner at which half of the binding sites on the other are occupied at equilibrium, for simple one-to-one binding) was 0.049 µM in data set [1]; above 8 µM in data set [2]; 2.1 µM in data set [3]; 0.0049 µM in data set [4]; above 5 µM in data set [5]; 0.86 µM in data set [6].
